Measured values reported in patent publication US4305872A, “Polypeptide derivatives” (priority 1979, dated 1981).

Tested on: guinea pig ileum (opiate receptor site)
Assay: Guinea pig ileum (GPI) assay for enkephalin activity, electrically stimulated contractions
Conditions: Naloxone added to the bath in presence of Methadone; FIG. 3

C=CCN1CC[C@]23c4c5ccc(O)c4O[C@H]2C(=O)CC[C@@]3(O)[C@H]1C5 [Naloxone]
antagonism of opiate block: return of contractions: the contractions immediately return
